Test results: patent publication US20050137135A1 (priority 2002, published 2005)

Test system: INS-1 (832/13) cells
Experiment: Cell survival during glucose deprivation (CYQUANT)
Type: cell-based
Settings: 0 mM glucose, n=4, FIG. 16B
Description: Cell passages 45-60 were used.
Cells were seeded into 96-well plates (5×10^4 cells/well) prior to experimentation. […] Cells were quantified using the CYQUANT™ assay system (Molecular Probes, Eugene, Oreg., USA) according to the manufacturers' protocol.
Cell survival was assessed in the presence of prolonged glucose deprivation.

Compound: CC[C@H](C)[C@H](NC(=O)[C@H](CO)NC(=O)[C@H](Cc1ccc(O)cc1)NC(=O)[C@H](CC(=O)O)NC(=O)[C@H](CO)NC(=O)[C@@H](NC(=O)[C@H](Cc1ccccc1)NC(=O)[C@@H](NC(=O)CNC(=O)[C@H](CCC(=O)O)NC(=O)[C@H](C)NC(=O)[C@@H](N)Cc1ccc(O)cc1)[C@@H](C)O)[C@@H](C)CC)C(=O)N[C@@H](C)C(=O)N[C@@H](CCSC)C(=O)N[C@@H](CC(=O)O)C(=O)N[C@@H](CCCCN)C(=O)N[C@H](C(=O)N[C@@H](Cc1c[nH]cn1)C(=O)N[C@@H](CCC(N)=O)C(=O)N[C@@H](CCC(N)=O)C(=O)N[C@@H](CC(=O)O)C(=O)N[C@@H](Cc1ccccc1)C(=O)N[C@H](C(=O)N[C@@H](CC(N)=O)C(=O)N[C@@H](Cc1c[nH]c2ccccc12)C(=O)N[C@@H](CC(C)C)C(=O)N[C@@H](CC(C)C)C(=O)N[C@@H](C)C(=O)N[C@@H](CCC(N)=O)C(=O)N[C@@H](CCCCN)C(=O)NCC(=O)N[C@@H](CCCCN)C(=O)N[C@@H](CCCCN)C(=O)N[C@@H](CC(N)=O)C(=O)N[C@@H](CC(=O)O)C(=O)N[C@@H](Cc1c[nH]c2ccccc12)C(=O)N[C@@H](CCCCN)C(=O)N[C@@H](Cc1c[nH]cn1)C(=O)N[C@@H](CC(N)=O)C(=O)N[C@H](C(=O)N[C@H](C(=O)N[C@@H](CCC(N)=O)C(=O)O)[C@@H](C)O)[C@@H](C)CC)C(C)C)[C@@H](C)CC [GIP, glucose-dependent insulinotropic polypeptide]
- EC50: 1.24 ± 0.48 nM
